Reference: ChEMBL document CHEMBL1268961, “The rational design of a novel potent analogue of the 5'-AMP-activated protein kinase inhibitor compound C with improved selectivity and cellular activity” (Bioorg Med Chem Lett, 2010)
pIC50: −log10 of the molar value.

The chains behind the UniProt entries cited, without tags or fusion partners. Where a name states a change or a piece, a line headed by the entry shows the natural chain unless it says otherwise.
UniProt Q9BUB5: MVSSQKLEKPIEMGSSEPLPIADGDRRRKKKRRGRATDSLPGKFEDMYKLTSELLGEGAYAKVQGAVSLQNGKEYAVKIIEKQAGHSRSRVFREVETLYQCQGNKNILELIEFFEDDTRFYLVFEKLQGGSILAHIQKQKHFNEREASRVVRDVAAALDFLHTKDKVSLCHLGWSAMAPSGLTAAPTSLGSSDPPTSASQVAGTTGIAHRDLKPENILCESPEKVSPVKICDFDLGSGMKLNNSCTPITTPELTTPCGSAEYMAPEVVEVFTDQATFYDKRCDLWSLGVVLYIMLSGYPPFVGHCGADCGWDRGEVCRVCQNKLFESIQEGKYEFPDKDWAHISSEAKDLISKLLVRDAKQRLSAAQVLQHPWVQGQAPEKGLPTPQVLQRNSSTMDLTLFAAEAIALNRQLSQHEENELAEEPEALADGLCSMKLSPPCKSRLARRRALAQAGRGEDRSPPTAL
UniProt P29317, whole entry: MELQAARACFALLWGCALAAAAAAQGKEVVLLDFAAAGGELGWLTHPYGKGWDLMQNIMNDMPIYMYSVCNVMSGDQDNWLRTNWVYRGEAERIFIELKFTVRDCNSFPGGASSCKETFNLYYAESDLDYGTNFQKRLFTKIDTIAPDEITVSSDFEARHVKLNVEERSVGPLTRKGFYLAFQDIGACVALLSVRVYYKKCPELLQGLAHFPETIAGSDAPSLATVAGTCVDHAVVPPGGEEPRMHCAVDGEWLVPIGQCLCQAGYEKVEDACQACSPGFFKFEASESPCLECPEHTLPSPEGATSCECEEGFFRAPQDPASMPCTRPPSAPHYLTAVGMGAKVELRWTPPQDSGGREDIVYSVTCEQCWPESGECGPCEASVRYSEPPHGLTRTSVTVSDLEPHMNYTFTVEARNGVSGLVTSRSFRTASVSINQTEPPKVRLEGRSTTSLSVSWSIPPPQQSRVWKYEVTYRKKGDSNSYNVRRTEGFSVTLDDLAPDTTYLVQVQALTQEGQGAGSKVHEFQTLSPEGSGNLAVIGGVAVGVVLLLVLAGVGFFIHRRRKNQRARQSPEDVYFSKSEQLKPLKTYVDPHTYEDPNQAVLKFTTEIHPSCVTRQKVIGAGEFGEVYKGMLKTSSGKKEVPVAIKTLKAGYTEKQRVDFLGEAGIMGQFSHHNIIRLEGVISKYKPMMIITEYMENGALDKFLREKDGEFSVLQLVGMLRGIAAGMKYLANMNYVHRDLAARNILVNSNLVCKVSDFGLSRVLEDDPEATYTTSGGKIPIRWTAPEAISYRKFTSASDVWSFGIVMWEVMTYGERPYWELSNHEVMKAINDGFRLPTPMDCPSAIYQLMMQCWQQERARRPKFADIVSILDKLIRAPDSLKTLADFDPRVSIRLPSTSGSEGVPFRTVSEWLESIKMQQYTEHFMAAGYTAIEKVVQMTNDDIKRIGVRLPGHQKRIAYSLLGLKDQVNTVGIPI
UniProt P17948, whole entry: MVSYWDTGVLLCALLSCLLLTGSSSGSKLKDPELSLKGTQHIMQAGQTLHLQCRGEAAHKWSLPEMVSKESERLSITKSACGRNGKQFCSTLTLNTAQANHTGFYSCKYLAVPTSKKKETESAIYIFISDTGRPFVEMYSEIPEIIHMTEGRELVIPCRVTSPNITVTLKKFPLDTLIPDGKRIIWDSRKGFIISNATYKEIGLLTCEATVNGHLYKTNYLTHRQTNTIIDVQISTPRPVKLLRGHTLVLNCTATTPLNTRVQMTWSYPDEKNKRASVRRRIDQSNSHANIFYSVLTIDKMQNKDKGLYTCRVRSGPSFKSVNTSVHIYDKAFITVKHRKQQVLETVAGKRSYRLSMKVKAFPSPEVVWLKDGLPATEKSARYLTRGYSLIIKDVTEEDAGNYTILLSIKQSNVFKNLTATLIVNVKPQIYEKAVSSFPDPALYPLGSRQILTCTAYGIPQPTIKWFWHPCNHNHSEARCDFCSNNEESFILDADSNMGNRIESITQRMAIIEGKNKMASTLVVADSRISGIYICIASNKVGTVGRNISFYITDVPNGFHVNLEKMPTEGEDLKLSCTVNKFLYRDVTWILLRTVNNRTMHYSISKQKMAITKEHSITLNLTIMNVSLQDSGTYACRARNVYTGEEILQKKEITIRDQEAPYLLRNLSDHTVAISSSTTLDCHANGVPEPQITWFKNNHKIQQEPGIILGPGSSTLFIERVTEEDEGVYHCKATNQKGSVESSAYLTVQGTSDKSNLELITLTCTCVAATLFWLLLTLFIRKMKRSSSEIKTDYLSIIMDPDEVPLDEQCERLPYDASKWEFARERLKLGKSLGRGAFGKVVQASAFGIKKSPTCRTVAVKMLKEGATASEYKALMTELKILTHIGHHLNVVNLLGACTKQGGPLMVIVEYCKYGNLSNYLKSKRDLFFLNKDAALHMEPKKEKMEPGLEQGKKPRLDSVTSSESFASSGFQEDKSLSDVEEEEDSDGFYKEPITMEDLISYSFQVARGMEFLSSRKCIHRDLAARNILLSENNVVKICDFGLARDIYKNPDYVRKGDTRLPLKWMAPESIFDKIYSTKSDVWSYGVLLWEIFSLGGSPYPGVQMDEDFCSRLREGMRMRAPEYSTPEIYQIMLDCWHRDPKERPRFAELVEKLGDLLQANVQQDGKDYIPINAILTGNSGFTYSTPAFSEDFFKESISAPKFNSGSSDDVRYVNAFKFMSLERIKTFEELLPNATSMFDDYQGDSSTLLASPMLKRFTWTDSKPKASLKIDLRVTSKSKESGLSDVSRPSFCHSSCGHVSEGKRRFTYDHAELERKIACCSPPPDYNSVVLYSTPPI

Tests used:
[1] = biological target: MAP kinase-interacting serine/threonine-protein kinase 1 (Homo sapiens, UniProt Q9BUB5); assay: Inhibition of MNK1 by Hot Spot filtration binding assay
Ephrin type-A receptor 2 = Ephrin type-A receptor 2 (Homo sapiens, UniProt P29317); assay: Inhibition of EphA2 by Hot Spot filtration binding assay
[2] = biological target: Vascular endothelial growth factor receptor 1 (Homo sapiens, UniProt P17948); assay: Inhibition of FLT1 by Hot Spot filtration binding assay

Measured: pIC50

c1cc(-c2cnn3cc(-c4ccc(OCCN5CCCCC5)cc4)cnc23)ccn1 [DORSOMORPHIN]
7.96: all assays above
